From patent publication US10174036B2, “Substituted pyrazoles as JAK inhibitors” (WUXI FORTUNE PHARMACEUTICAL CO., LTD, priority 2015, dated 2019)

By UniProt entry, the sequences of proteins in these tests, tags left out.
UniProt O60674, whole entry: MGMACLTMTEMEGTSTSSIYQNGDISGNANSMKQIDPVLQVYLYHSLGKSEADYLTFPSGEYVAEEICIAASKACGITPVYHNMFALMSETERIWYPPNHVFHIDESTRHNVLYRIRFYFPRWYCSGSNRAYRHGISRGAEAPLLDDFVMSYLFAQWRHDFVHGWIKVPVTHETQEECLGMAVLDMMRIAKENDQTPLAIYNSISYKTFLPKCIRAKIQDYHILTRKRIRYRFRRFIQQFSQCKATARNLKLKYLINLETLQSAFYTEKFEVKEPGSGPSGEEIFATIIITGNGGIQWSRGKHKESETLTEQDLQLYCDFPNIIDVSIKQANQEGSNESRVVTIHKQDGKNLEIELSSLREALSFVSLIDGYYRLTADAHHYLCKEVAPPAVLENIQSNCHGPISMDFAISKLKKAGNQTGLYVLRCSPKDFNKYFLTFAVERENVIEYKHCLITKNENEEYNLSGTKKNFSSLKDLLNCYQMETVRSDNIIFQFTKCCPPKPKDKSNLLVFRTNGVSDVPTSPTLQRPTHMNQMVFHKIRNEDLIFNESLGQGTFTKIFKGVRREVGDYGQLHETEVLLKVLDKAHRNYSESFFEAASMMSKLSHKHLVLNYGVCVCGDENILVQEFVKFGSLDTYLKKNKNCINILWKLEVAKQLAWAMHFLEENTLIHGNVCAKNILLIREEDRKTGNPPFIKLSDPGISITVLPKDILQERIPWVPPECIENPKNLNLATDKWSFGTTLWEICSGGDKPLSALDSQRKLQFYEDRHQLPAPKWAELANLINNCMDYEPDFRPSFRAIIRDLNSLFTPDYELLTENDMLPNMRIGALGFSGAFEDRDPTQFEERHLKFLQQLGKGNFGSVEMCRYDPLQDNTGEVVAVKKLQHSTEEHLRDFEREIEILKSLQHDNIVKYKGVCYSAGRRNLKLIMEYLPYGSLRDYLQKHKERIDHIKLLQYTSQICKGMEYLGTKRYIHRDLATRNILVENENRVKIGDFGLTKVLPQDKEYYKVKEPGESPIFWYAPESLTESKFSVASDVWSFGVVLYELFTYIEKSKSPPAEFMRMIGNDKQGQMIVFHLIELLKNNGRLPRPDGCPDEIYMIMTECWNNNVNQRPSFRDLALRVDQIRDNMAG
UniProt P52333, whole entry: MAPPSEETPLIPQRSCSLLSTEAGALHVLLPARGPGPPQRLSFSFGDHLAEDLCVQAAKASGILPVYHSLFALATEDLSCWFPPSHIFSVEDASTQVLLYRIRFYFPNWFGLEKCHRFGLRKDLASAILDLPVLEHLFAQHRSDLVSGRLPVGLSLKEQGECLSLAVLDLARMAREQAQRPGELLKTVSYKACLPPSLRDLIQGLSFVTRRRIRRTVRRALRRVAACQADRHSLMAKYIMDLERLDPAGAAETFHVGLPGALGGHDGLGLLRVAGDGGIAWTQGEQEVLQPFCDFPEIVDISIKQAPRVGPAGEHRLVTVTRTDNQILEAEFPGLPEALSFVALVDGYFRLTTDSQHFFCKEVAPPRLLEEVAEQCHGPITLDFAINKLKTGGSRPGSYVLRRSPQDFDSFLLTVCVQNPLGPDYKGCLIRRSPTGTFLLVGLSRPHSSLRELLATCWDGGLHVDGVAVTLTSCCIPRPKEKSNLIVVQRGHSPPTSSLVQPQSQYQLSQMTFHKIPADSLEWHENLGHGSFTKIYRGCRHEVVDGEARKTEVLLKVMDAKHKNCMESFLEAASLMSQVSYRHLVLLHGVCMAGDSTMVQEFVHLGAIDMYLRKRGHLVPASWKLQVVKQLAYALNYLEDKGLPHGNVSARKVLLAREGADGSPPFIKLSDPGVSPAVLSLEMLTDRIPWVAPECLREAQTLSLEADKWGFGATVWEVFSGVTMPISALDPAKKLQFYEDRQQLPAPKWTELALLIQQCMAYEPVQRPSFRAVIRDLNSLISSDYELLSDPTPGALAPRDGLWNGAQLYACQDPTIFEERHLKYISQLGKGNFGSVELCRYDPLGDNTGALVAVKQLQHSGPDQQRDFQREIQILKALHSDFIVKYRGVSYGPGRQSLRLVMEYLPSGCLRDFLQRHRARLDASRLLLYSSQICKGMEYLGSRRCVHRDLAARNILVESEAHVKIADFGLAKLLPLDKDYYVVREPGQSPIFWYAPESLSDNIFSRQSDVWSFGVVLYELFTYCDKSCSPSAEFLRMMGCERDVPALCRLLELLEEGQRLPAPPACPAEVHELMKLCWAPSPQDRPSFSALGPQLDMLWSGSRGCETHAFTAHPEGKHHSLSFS
UniProt P23458, whole entry: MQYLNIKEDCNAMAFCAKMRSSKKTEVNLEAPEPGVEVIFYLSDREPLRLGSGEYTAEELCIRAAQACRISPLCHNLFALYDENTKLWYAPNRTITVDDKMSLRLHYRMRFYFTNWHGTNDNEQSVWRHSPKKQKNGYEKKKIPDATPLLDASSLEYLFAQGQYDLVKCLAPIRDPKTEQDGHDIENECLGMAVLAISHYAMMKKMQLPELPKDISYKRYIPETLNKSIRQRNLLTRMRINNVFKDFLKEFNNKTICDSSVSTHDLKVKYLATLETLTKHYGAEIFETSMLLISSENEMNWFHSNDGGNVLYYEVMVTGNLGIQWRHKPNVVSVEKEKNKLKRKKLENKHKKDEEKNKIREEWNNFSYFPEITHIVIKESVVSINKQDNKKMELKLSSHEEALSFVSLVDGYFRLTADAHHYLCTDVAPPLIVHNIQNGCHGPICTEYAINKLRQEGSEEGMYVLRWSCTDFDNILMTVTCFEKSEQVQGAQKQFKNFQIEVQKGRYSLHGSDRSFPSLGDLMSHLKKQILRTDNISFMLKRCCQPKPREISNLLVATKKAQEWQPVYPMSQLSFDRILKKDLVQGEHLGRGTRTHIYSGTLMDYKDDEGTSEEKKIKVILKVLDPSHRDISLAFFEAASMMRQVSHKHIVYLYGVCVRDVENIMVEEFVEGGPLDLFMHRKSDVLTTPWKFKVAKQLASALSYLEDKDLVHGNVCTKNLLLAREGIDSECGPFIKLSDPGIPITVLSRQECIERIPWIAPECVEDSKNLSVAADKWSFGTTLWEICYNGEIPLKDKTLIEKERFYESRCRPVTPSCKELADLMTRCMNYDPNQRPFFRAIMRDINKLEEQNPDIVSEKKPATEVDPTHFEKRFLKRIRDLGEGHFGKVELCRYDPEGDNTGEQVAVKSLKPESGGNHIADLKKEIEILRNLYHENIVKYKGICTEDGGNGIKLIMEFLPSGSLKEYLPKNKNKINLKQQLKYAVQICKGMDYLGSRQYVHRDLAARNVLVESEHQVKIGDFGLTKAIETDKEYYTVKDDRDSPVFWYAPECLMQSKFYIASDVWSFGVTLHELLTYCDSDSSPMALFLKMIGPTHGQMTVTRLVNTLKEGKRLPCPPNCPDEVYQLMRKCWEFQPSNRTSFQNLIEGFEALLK

How the values were obtained:
JAK2 = JAK2 (Homo sapiens, UniProt O60674); experiment: Test for in vitro activity of JAK2 kinase (LANCE Ultra ULight-JAK-1 peptide); conditions: read-out: JAK2; recombinant human JAK2, 12 uM ATP, 60 min; class symbol
JAK3 = JAK3 (Homo sapiens, UniProt P52333); experiment: Test for in vitro activity of JAK3 kinase (LANCE Ultra ULight-JAK-1 peptide); conditions: selectivity ratio JAK3 versus JAK2; class symbol
JAK1 = JAK1 (Homo sapiens, UniProt P23458); experiment: Test for in vitro activity of JAK1 kinase (LANCE Ultra ULight-JAK-1 peptide); format: biochemical; conditions: selectivity ratio JAK1 versus JAK2; class symbol

IC50 (JAK2): < 10 nM
JAK3/JAK2 (times) (JAK3): F4 (25 < F4 ≤ 100)
JAK1/JAK2 (times) (JAK1): F1 (1 ≤ F1 ≤ 5)
Structure (SMILES): N#CCC1(n2cc(-c3cccn4nc(NC(=O)C5CC5)nc34)cn2)CN(S(=O)(=O)C2CC2)C1
